The values below are quoted from earlier work in EP0662975B1, “2-SUBSTITUTED ADENOSINES WITH A-2 RECEPTOR AFFINITY” (priority 1992, dated 1994).

The test system of the data set is adenosine receptors. The settings on record: in vivo; cited from earlier work.

As for `CCCn1c(=O)c2[nH]c(-c3ccc(OCC(=O)NCCN)cc3)nc2n(CCC)c1=O` [XAC, amino congener of 8-phenyl-1,3-dipropylxanthine], the “antagonizing the effects of adenosine analogs on heart rate vs blood pressure” value was “much more potent in antagonizing the effects of adenosine analogs on heart rate than on blood pressure”.
